Results published in paper PMC9864848, “A Study of the Interaction between Xanthine Oxidase and Its Inhibitors from Chrysanthemum morifolium Using Computational Simulation and Multispectroscopic Methods” (Metabolites, 2023).

Chains of the proteins cited; added tags and fusions are not shown.
UniProt P80457, whole entry: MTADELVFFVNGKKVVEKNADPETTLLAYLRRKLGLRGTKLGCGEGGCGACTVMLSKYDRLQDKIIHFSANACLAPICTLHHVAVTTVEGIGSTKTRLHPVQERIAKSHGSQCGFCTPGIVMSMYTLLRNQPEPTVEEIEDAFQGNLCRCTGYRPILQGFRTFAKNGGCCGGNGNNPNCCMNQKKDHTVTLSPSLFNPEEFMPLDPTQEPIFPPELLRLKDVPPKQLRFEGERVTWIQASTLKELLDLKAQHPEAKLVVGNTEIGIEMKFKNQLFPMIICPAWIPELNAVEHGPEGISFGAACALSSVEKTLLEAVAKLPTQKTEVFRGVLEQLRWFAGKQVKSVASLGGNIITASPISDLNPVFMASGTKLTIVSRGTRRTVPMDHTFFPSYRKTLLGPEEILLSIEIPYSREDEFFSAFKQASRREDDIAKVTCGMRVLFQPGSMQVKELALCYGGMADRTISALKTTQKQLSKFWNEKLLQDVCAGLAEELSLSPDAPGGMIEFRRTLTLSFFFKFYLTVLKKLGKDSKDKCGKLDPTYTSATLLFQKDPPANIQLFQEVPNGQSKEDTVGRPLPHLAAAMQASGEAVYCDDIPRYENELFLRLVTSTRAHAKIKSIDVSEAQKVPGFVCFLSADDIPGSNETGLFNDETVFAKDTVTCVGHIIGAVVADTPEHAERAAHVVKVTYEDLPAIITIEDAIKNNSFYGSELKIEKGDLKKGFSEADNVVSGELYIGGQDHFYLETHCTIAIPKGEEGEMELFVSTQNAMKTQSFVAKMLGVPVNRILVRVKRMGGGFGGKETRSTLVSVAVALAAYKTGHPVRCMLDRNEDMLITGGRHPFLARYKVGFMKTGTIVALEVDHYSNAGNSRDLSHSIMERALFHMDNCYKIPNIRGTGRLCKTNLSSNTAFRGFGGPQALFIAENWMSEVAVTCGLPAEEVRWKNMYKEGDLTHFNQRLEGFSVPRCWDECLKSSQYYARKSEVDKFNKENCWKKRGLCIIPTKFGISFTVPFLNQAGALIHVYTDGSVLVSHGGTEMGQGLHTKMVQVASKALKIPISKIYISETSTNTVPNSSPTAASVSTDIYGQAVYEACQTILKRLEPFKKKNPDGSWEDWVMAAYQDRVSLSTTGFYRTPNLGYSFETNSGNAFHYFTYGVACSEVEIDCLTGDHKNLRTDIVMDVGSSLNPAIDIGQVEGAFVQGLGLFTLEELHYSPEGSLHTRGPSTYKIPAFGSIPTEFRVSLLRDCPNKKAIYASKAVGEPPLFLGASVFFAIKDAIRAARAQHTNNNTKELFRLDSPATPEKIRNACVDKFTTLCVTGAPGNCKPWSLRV

Molecular target: T1, XO (Bos taurus, UniProt P80457)
T1 construct: purchased Roche Diagnostics (Mannheim, Germany)
Experiment: Fluorescence quenching assay of XO
Type: binding, Bovine
Conditions: Modified Stern-Volmer association constant Ka, pH 7.5
Description: The assay was carried out by referring to a previous method with slight modifications. […] Titrations were performed manually and mixed carefully. […] The excitation wavelength was set at 280 nm, and the excitation and emission slits were 5 nm. The fluorescence background was corrected by subtracting the relevant blanks corresponding to the potassium phosphate buffer (pH 7.5).
To distinguish the mechanism of quenching various inhibitors on XO, the fluorescence quenching output was analyzed by applying the Stern-Volmer equation [34]: F0/F=1+KSV[Q]=1+Kqτ0[Q] where F0 and F represent the steady-state fluorescence intensities of XO in the absence and presence of the respective inhibitor. KSV is the Stern-Volmer quenching constant, determined from the slope of the linear regression of F0/F against the [Q] plot. [Q] represents the concentration of the inhibitor.
Then, Ka values for the inhibitor-XO complex at three different temperatures were calculated from the linear regression of F0/(F0 − F) against 1/[Q].

## O=c1c(O)c(-c2ccc(O)cc2)oc2cc(O)cc(O)c12 [Kaempferol, kaempferol]
298 K
  Kd: 1740 nM
304 K
  Kd: 3440 nM
310 K
  Kd: 2090 nM
